Laboratory results reported in patent US7126027B2, “N-[(1-dimethylaminocycloalkyl)methyl]benzamide derivatives” (Akzo Nobel N.V., priority 2002, dated 2006).

Amino acid sequences for entries named in this document (tags omitted).
UniProt Q9Y345, whole entry: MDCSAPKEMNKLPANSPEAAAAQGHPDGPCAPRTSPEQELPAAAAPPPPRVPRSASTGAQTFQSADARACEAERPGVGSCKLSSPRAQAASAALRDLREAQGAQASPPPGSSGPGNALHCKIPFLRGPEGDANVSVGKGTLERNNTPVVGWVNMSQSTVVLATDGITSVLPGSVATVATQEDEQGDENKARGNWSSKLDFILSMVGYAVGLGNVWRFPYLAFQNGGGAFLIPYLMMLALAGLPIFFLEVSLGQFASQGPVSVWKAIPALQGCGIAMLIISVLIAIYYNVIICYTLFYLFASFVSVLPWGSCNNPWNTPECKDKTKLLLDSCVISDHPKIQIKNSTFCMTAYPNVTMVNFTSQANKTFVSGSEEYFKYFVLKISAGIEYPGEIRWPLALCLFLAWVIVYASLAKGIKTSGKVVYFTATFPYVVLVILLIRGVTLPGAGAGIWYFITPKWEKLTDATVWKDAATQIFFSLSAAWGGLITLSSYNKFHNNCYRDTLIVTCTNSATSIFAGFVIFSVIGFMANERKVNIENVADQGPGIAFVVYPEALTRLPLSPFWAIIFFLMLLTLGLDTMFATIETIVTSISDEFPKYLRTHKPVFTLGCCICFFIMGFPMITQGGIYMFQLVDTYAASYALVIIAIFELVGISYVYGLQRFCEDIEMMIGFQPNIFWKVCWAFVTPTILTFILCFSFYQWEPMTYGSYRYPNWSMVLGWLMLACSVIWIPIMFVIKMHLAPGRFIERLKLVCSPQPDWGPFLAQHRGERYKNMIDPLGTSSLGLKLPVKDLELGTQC

Biological target: hGlyT-2 (Homo sapiens, UniProt Q9Y345)
Experiment: Glycine uptake assay, CHO cells stably transfected with hGlyT-2
Conditions: read-out: Inhibition of glycine transport by hGlyT-2 IC50, [3H]-glycine 30 μM, 37° C., 10 minutes
Protocol: Glycine uptake assays were performed as described by Morrow et al. (FEBS Lett. 1998, 439, 334–340) using CHO cells stably transfected with either hGlyT-1b or hGlyT-2. Cells were grown in 96 well microtitre plates (30,000 cells/well) for 24–48 hours before removal of culture medium and addition of Hanks Balanced Salt Solution (HBSS) containing [^3H]-glycine (30 μM) and varying concentrations of test compounds. Plates were incubated at 37° C. for 10 minutes and uptake terminated by washing three times with ice-cold HBSS. After removal of excess liquid, scintillation cocktail was added to each well, prior to counting in a plate counter. Data were analysed using the GraphPad Prism™ analysis package and the sigmoid dose-response curve fitting option to produce IC50 (the concentration of test compound producing 50% inhibition of uptake) values.

COc1cc(C(=O)NCC2(N(C)C)CCCCC2)cc(OC)c1OC
IC50: > 10 µM

Only a part of the results on these compounds is given; other tests are left out.
